This test in a line: Ratio of IC50 for full-length human GCYH1A expressed in Escherichia coli to IC50 for Neisseria gonorrhoeae GCYH1B.

Molecules are shown by their SMILES.

Consider `Nc1nc(OC[C@H](O)CO)c2[nH]c(=O)n([C@@H]3O[C@H](CO)[C@@H](O)[C@H]3O)c2n1`, for which the Ratio IC50 is 3.

The values above are taken from ChEMBL document CHEMBL4613223, “Structure-based design of guanosine analogue inhibitors targeting GTP cyclohydrolase IB towards a new class of antibiotics” (Bioorg Med Chem Lett, 2020).
